Experimental data as given in US20160228567A1, “Hypoxia-Targeted Delivery System for Pharmaceutical Agents” (NORTHEASTERN UNIVERSITY, priority 2013, published 2016).

Tested on: B16F10 tumors
Settings: mouse, in vivo, iv

| accumulation in tumors (tumor sections) | Substance |
| --- | --- |
| detected in tumor sections | PEG-Azo-Rhodamine-PEI-DOPE [PARPD] |
| not found to accumulate in tumors | PEG-Rhodamine-PEI-DOPE [PRPD] |
